Source: ChEMBL document CHEMBL1142463 (Bioorg Med Chem Lett, 2008)

Experiments:
[1] = biological target: T1, Phospholipase A2 group V (Homo sapiens, UniProt P39877); assay: Inhibition of human sPLA2 group 5
T1 sequence (P39877 whole entry): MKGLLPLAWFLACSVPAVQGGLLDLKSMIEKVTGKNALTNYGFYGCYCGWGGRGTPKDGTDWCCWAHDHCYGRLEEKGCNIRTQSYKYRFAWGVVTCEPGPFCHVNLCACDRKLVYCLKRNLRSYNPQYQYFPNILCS

[2] = biological target: T2, Phospholipase A2, membrane associated (Homo sapiens, UniProt P14555); assay: Inhibition of human sPLA2 group 2A
T2 sequence (P14555 whole entry): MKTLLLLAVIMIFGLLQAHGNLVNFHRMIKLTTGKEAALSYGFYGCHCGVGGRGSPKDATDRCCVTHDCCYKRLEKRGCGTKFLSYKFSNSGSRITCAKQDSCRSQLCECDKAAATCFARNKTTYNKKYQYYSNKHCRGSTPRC

[3] = biological target: T2, Phospholipase A2, membrane associated; assay: Inhibition of sPLA2 group 2A
[4] = biological target: T3, Phospholipase A2, membrane associated (Rattus norvegicus, UniProt P14423); assay: Inhibition of rat sPLA2 group 2A
T3 sequence (P14423 whole entry): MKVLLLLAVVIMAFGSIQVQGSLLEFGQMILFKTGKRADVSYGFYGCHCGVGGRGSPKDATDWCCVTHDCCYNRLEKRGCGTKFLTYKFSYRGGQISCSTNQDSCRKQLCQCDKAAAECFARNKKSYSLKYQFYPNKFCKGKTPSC

For `CCCCCCCCCCCC(=O)c1c(O)c(C(=O)CCCCCCCCCCC)c(O)c(C2CC(c3ccc(O)cc3)Oc3cc(O)ccc32)c1O` (configuration not stated), the IC50 [1] was 110 nM, the IC50 [2] was 80 nM and the IC50 [3] was 1000 nM. The IC50 [4] was 120 nM.

Molecule `CCCCCCCCCCCC(=O)c1c(O)c(C(=O)CCCCCCCCCCC)c(O)c([C@@H]2C[C@@H](c3ccc(O)cc3)Oc3cc(O)ccc32)c1O` has an IC50 [4] of 120 nM.

`CCCCCCCCCCCC(=O)c1c(O)c(C(=O)CCCCCCCCCCC)c(O)c([C@H]2C[C@@H](c3ccc(O)cc3)Oc3cc(O)ccc32)c1O` showed an IC50 [4] of 70 nM.

`CCCCCCCCCCCC(=O)c1c(O)c(C(=O)CCCCCCCCCCC)c(O)c([C@@H]2C[C@H](c3ccc(O)cc3)Oc3cc(O)ccc32)c1O` showed an IC50 [4] of 60 nM.
